From patent US20240383950A1, “RECOMBINANT GLYCAN BINDING PROTEINS AND ITS USE” (UNICHEM LABORATORIES LIMITED, priority 2021, published 2024)

Assays:
[1] = Solubility of expressed protein in production medium, SDS PAGE; assay type: physicochemical; conditions: for solubility in production medium: SDS PAGE
Procedure: Solubility of expressed protein of SEQ ID NO. 3 and 4 in production medium (induced at 18° C. with 0.25 mM IPTG) was evaluated using SDS PAGE analysis.

[2] = Expression analysis of soluble protein at timepoints during fermentation, SDS-PAGE; assay type: physicochemical; conditions: for solubility in production medium during fermentation stages: various timepoints, SDS-PAGE
Procedure: The cells were grown in fermentation medium under controlled conditions and induced with suitable inducer. Harvesting was done at different timepoints and analysed using SDS-PAGE for expression of soluble proteins.

[3] = induced at 18° C. with 0.25 mM IPTG
[4] = batch 1-overnight, induced at 18° C. with 0.25 mM IPTG

Row | Molecule | solubility in production medium [1, 3] | Band % [1, 4] | Band % ([1]; batch 1-pellet) | Band % ([1]; batch 1-supernatant) | Band % ([1]; batch 2-overnight) | Band % ([1]; batch 2-pellet) | Band % ([1]; batch 2 supernatant) | Abs. Quant. ([2]; Log 45 hrs Pellet) | Abs. Quant. ([2]; Log 45 hrs supernatant) | Abs. Quant. ([2]; Log 48 hrs Pellet) | Abs. Quant. ([2]; Log 48 hrs supernatant) | Abs. Quant. ([2]; Log 51 hrs Pellet) | Abs. Quant. ([2]; Log 51 hrs supernatant) | Abs. Quant. ([2]; Log 54 hrs Pellet) | Abs. Quant. ([2]; Log 54 hrs supernatant) | solubility in production medium during fermentation stages [2] | further results
1 | SEQ ID NO. 4: SEQ ID NO. 2 re-engineered: Serine at 1st, Glycine at 76th, Serine added at 142nd and Cysteine at 143rd position (protein) SYKITVRVYQTNPDAFFHPVEKTVWKYANGGTWTITDDQHVLTMGGSGTSGTLRFHADNGESFTATFGVHNYKRWGDIVTNLAADETGMVINQQYYSQKNREEARERQLSNYQVKNAKGRNFQIVYTEAEGNDLHANLIIGSC | confirmed | 15.64% | 18.14% | 20.41% | 19.72% | 16.40% | 18.49% | 0.34 ug/10 uL | 3.51 ug/10 uL | 0.22 ug/10 uL | 3.58 ug/10 uL | 0.19 ug/10 uL | 4.63 ug/10 uL | 1.31 ug/10 uL | 4.33 ug/10 uL | confirmed | Band % ([1]; batch 3-overnight): 16.57%; Band % ([1]; batch 3-supernatant): 14.55%; Band % ([1]; batch 3 pellet): 10.44%
2 | SEQ ID NO. 3: SEQ ID NO. 2 re-engineered: Serine at 1st position, Glycine at 76th position, Cysteine added at carboxy terminal end (protein) SYKITVRVYQTNPDAFFHPVEKTVWKYANGGTWTITDDQHVLTMGGSGTSGTLRFHADNGESFTATFGVHNYKRWGDIVTNLAADETGMVINQQYYSQKNREEARERQLSNYQVKNAKGRNFQIVYTEAEGNDLHANLIIGC | confirmed | 56.0% | 49.6% | 47.2% | 52.5% | 51.1% | 55.4% | 0.33 ug/10 uL | 4.66 ug/10 uL | 1.52 ug/10 uL | 3.71 ug/10 uL | 0.40 ug/10 uL | 4.29 ug/10 uL | 1.30 ug/10 uL | 4.32 ug/10 uL | confirmed | Relative % ([2]; Log 45 hrs Pellet): 6.6%; Relative % ([2]; Log 45 hrs supernatant): 93.4%; Relative % ([2]; Log 48 hrs Pellet): 29%; Relative % ([2]; Log 48 hrs supernatant): 71%; Relative % ([2]; Log 51 hrs Pellet): 8.5%; Relative % ([2]; Log 51 hrs supernatant): 91.5%; Relative % ([2]; Log 54 hrs Pellet): 23%; Relative % ([2]; Log 54 hrs supernatant): 77%; Abs. Quant. ([2]; Log 57 hrs Pellet): 1.73 ug/10 uL; Relative % ([2]; Log 57 hrs Pellet): 26%; Abs. Quant. ([2]; Log 57 hrs supernatant): 4.87 ug/10 uL; Relative % ([2]; Log 57 hrs supernatant): 74%; Abs. Quant. ([2]; Log 60 hrs Pellet): 1.84 ug/10 uL; Relative % ([2]; Log 60 hrs Pellet): 24%; Abs. Quant. ([2]; Log 60 hrs supernatant): 5.81 ug/10 uL; Relative % ([2]; Log 60 hrs supernatant): 76%
